Values of other authors, collected in US5905089A, “Use of sesquiterpene lactones for treatment of severe inflammatory disorders” (Board of Supervisors of Louisiana State University and …, priority 1998, dated 1999).

Test system: COX-1
Conditions: in contrast to suppression of COX-2 expression; cited from earlier work

C[C@@H]1C[C@H]2O[C@@H]2/C=C\C=C\C(=O)Cc2c(Cl)c(O)cc(O)c2C(=O)O1 [radicicol]
effect on COX-1: without affecting COX-1
